{
  "sequences": {"note": "Protein sequences, listed by entry. Tags and fused reporters are not part of them. Residues count along the entry.", "UniProt Q16186, 1-150": "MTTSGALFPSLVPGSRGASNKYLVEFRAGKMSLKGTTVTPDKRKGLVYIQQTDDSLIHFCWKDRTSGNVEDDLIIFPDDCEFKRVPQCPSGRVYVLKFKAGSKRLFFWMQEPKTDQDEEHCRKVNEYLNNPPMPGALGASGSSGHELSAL"},
  "source": "paper PMC4605517",
  "about": "(PLoS ONE, 2015)",
  "key": {"hRpn13 Pru domain [1]": {"biological_target": "T1, hRpn13 Pru domain (Homo sapiens, UniProt Q16186)", "T1 construct": "hRpn13 (1–150) and hRpn2 (916–953) samples were dialyzed extensively against ITC buffer; histidine tag (with PreScission protease site) (cleaved yes); made in house; host or cells: Escherichia coli (inferred: the method is called similar to that for hRpn2, which was expressed in E. coli)", "test": "Isothermal titration calorimetry (ITC)", "assay_type": "binding", "experimental": "hRpn2 (916–953) was expressed in Escherichia coli as a fusion protein with GST and a PreScission protease cleavage site. Cells were lysed by sonication and cellular debris removed by centrifugation at 31,000g for 30 minutes. The cell lysate was incubated with glutathione S-sepharose resin and washed extensively with Buffer 1 (20 mM sodium phosphate, 300 mM NaCl, 2 mM DTT, pH 6.5). hRpn2 (916–953) was eluted from the resin and separated from GST by overnight incubation with 50 u/mL PreScission protease in Buffer 2 (20 mM sodium phosphate, 50 mM NaCl, 2 mM DTT, pH 6.5). Further purification was achieved by size exclusion chromatography with a Superdex 75 column on an FPLC system. ^15N ammonium chloride, ^13C glucose, and D2O were used for isotope labeling. hRpn13 (1–150) was prepared as described by with a method similar to that described above for hRpn2, but with a histidine tag in place of GST and Talon resin used for affinity purification. PreScission protease was used for elution and removal of the tag and all buffers were identical. All NMR experiments were performed in Buffer 2, but with addition of 10% D2O and 0.1% sodium azide. Protein concentrations were estimated by using calculated extinction coefficients for each protein and absorbance at λ = 280nm. […] The molar ratio was then evaluated by LC-MS analysis and found to be 1:1 stoichiometry. […]"}, "hRpn13 Pru domain [2]": {"biological_target": "T1, hRpn13 Pru domain", "test": "1H,15N HSQC NMR titration / chemical shift perturbation (CSP)", "assay_type": "binding", "conditions": "25°C, pH 6.5", "experimental": "hRpn2 (916–953) was expressed in Escherichia coli as a fusion protein with GST and a PreScission protease cleavage site. Cells were lysed by sonication and cellular debris removed by centrifugation at 31,000g for 30 minutes. The cell lysate was incubated with glutathione S-sepharose resin and washed extensively with Buffer 1 (20 mM sodium phosphate, 300 mM NaCl, 2 mM DTT, pH 6.5). hRpn2 (916–953) was eluted from the resin and separated from GST by overnight incubation with 50 u/mL PreScission protease in Buffer 2 (20 mM sodium phosphate, 50 mM NaCl, 2 mM DTT, pH 6.5). […] Protein concentrations were estimated by using calculated extinction coefficients for each protein and absorbance at λ = 280nm. […] The molar ratio was then evaluated by LC-MS analysis and found to be 1:1 stoichiometry. […]\nChemical shift perturbation (CSP) analysis was done by comparing ^1H, ^15N HSQC experiments recorded on ^15N labeled hRpn2 (916–953) alone and with equimolar unlabeled hRpn13 Pru. CSP values were calculated according to Eq 1, as described in [24]. […]"}, "hRpn13 Pru domain [3]": {"biological_target": "T1, hRpn13 Pru domain", "test": "1H,15N heteronuclear NOE experiments", "conditions": "25°C", "experimental": "hRpn2 (916–953) was expressed in Escherichia coli as a fusion protein with GST and a PreScission protease cleavage site. Cells were lysed by sonication and cellular debris removed by centrifugation at 31,000g for 30 minutes. The cell lysate was incubated with glutathione S-sepharose resin and washed extensively with Buffer 1 (20 mM sodium phosphate, 300 mM NaCl, 2 mM DTT, pH 6.5). hRpn2 (916–953) was eluted from the resin and separated from GST by overnight incubation with 50 u/mL PreScission protease in Buffer 2 (20 mM sodium phosphate, 50 mM NaCl, 2 mM DTT, pH 6.5). Further purification was achieved by size exclusion chromatography with a Superdex 75 column on an FPLC system. ^15N ammonium chloride, ^13C glucose, and D2O were used for isotope labeling. hRpn13 (1–150) was prepared as described by with a method similar to that described above for hRpn2, but with a histidine tag in place of GST and Talon resin used for affinity purification. PreScission protease was used for elution and removal of the tag and all buffers were identical. All NMR experiments were performed in Buffer 2, but with addition of 10% D2O and 0.1% sodium azide. Protein concentrations were estimated by using calculated extinction coefficients for each protein and absorbance at λ = 280nm. The hRpn2 (916–953):hRpn13 Pru domain complex was passed over a size exclusion column after mixing to remove any excess component. The molar ratio was then evaluated by LC-MS analysis and found to be 1:1 stoichiometry.\n^1H, ^15N heteronuclear NOE experiments were performed with a four second saturation transfer or control period at 600 (for hRpn2 (916–953)) or 700 (for hRpn2 (916–953):hRpn13 Pru domain) MHz on spectrometers equipped with cryogenically cooled probes. Sample concentrations of 0.2 mM (hRpn2 (916–953)) or 0.4 mM (hRpn2 (916–953):hRpn13 Pru) were used and hRpn2 (916–953) was ^13C, ^15N, and 70% ^2H labeled; hRpn13 Pru was unlabeled. The hRpn2 (916–953):hRpn13 Pru sample was passed over a size exclusion column after mixing and LC-MS analysis determined the complex to be at 1:1 stoichiometry. The program relax was used for data analysis."}},
  "data": [
    {"smiles": "CC[C@H](C)[C@H](NC(=O)[C@H](Cc1ccc(O)cc1)NC(=O)[C@H](CCC(=O)O)NC(=O)[C@H](Cc1ccccc1)NC(=O)[C@@H]1CCCN1C(=O)[C@H](CCC(=O)O)NC(=O)[C@@H]1CCCN1C(=O)[C@@H]1CCCN1C(=O)[C@H](CCC(=O)O)NC(=O)[C@@H]1CCCN1C(=O)[C@H](CCC(=O)O)NC(=O)[C@H](CCC(N)=O)NC(=O)[C@H](CCC(=O)O)NC(=O)[C@H](CCC(=O)O)NC(=O)[C@H](CCC(=O)O)NC(=O)[C@H](CCC(=O)O)NC(=O)[C@@H](NC(=O)[C@H](CCCCN)NC(=O)[C@@H]1CCCN1C(=O)CNC(=O)[C@H](Cc1c[nH]cn1)NC(=O)[C@H](C)NC(=O)[C@H](C)NC(=O)[C@@H](NC(=O)[C@@H]1CCCN1C(=O)[C@H](CCC(=O)O)NC(=O)[C@@H](NC(=O)[C@H](CC(C)C)NC(=O)[C@H](CCC(=O)O)NC(=O)[C@H](CCC(=O)O)NC(=O)[C@@H](NC(=O)[C@H](CC(=O)O)NC(=O)[C@H](CCC(=O)O)NC(=O)[C@H](CO)NC(=O)[C@@H](NC(=O)[C@H](CC(=O)O)NC(=O)[C@H](CO)NC(=O)CNC(=O)[C@@H]1CCCN1C(=O)CN)[C@@H](C)O)[C@@H](C)CC)C(C)C)C(C)C)[C@@H](C)CC)C(=O)N[C@@H](CC(=O)O)C(=O)N[C@@H](CC(=O)O)C(=O)O", "note": "[hRpn2 (916–953)]", "values": [
      {"measurement": "Kd", "setting": "hRpn13 Pru domain [1]; Fig 2B fit value, ITC, 25°C, pH 6.5, 20 μM hRpn13 Pru, 1-site binding mode", "value": "0.0123 ± 0.00311", "unit": "µM"},
      {"measurement": "concentration of cytosolic proteasome in intact neurons (190 nM) relative to Kd", "setting": "hRpn13 Pru domain [1]; ratio of literature proteasome concentration (ref [26]) to Kd for hRpn2 interaction with hRpn13", "value": 15, "unit": "fold"},
      {"measurement": "amino acids with large effects on addition of hRpn13 Pru", "setting": "hRpn13 Pru domain [2]; 1H,15N HSQC, 0.6 mM 15N labeled peptide, equimolar hRpn13 Pru", "value": "large effects for F948, E949, Y950, and I951"},
      {"measurement": "amino acids with significant chemical shift perturbation", "setting": "hRpn13 Pru domain [2]; CSP, 15N labeled peptide with equimolar unlabeled hRpn13 Pru", "value": "significant shifting was calculated for E943-I951"},
      {"measurement": "average heteronuclear NOE enhancement value, 916–936, bound", "setting": "hRpn13 Pru domain [3]; bound to hRpn13 Pru, 0.4 mM, 700 MHz, pH 6.5", "value": -0.19},
      {"measurement": "average heteronuclear NOE enhancement value, E939-D953, hRpn13-bound", "setting": "hRpn13 Pru domain [3]; bound to hRpn13 Pru, 0.4 mM, 700 MHz, pH 6.5, four second saturation", "value": 0.58},
      {"measurement": "average heteronuclear NOE enhancement value, 916–936, free", "setting": "hRpn13 Pru domain [3]; free peptide, 0.2 mM, 600 MHz, pH 6.5", "value": -0.43},
      {"measurement": "average heteronuclear NOE enhancement value, E939-D953, free", "setting": "hRpn13 Pru domain [3]; free peptide, 0.2 mM, 600 MHz, pH 6.5, four second saturation", "value": -0.51}
    ]}
  ]
}
